Test results reported in patent publication US9826734B2, “Etherified lactate esters, method for the production thereof and use thereof for enhancing the effect of plant protecting agents” (Clariant International Ltd., priority 2011, dated 2017).

System: leaf cuticles of apple
Assay: Membrane penetration of tebuconazole (SC430) through isolated apple leaf cuticles
Type: in vitro ADME
Conditions: 0.5 g/l tebuconazole (SC 430)

Substance	Mean penetration of tevuconazole in % (2 g/l etherified lactate ester, 24 h, 20° C./60% RH)	Mean penetration of tevuconazole in % (2 g/l etherified lactate ester, 48 h, 30° C./60% RH)	Mean penetration of tevuconazole in % (0.5 g/l etherified lactate ester, 24 h, 20° C./60% RH)	Mean penetration of tevuconazole in % (0.5 g/l etherified lactate ester, 48 h, 30° C./60% RH)
2-ethylhexyl lactate 2EO	42.1%	42.1%		
Lauryl lactate 5EO/5PO			36.9%	36.9%
